Assays:
[1] = system: Vero, CHO-K1 and 1E6 hybridoma cells; assay: Soluble organic acids as lipid precursors, overall conclusion (Example 9); assay type: cell-based
Vero cells = assay: Soluble organic acids as lipid precursors, Vero cells (Example 9); assay type: cell-based, Monkey; details: DME/MCDB 110 basal medium
Hybridoma 1E6 = assay: Soluble organic acids as lipid precursors, Hybridoma 1E6 (Example 9); assay type: cell-based, Mouse

CCCCCC(=O)O [Caproic acid]
effective / optimum concentration of the most important organic acids [1]: around 0.2 mM
cell growth results (ranking of acids) (Vero cells): then caproic acid
cell growth results (ranking of acids) (Hybridoma 1E6): best results

Reference: patent US20050227355A1, “Serum-free cell culture media” (priority 1996, published 2005)
